These results are taken from patent US7303740B2, “Methods for the diagnosis and treatment of breast cancer” (Albert Einstein College of Medicine of Yeshiva University, priority 2000, dated 2007).

This data set deals with T1, mgNIS (Mus musculus, UniProt Q99PN0).
T1 sequence (Q99PN0 1-618): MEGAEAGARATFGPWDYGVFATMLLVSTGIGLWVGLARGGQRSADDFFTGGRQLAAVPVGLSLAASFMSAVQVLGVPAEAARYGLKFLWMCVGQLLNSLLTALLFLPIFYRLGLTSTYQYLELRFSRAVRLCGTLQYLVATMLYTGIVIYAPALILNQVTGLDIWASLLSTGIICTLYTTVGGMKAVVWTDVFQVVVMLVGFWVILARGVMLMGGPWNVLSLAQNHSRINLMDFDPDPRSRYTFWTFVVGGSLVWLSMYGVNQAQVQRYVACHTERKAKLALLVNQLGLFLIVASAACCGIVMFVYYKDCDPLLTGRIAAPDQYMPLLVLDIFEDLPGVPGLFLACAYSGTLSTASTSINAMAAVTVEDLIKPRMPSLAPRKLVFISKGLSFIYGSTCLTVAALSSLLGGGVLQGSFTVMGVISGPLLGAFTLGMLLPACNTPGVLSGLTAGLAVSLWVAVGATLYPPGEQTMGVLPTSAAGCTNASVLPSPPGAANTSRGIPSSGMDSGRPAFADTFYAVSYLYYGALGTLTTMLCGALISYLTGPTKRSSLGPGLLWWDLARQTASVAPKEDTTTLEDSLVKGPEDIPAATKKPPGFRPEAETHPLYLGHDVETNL
Set-up: Membrane fractions isolated from MG of nubile female mice; from tissue; host or cells: CD1 (ICR) mice (intact, ovariectomized, gestating) and MMTV-ras / MMTV-neu transgenic mice: mammary gland, mammary adenocarcinoma, stomach; species or system mice. To be noted: in vivo. Here is the method:
FIG. 5. Analysis of mammary adenocarcinomas in MMTV-ras and MMTV-neu transgenic mice. (A) Photograph of MMTV-ras transgenic mouse with a mammary adenocarcinoma. Transgenic mice were anaesthetized with intramuscular sodium pentobarbital injections. Then, ^99mTcO4^− (B, G), ^99mTc-labeled human serum albumin (^99mTc-HSA) (C), or ^99mTcO4^−+perchlorate (D, H) was administered by tail vein injections. (E) Dynamic curves of percent injected dose per pixel were calculated by drawing regions of interest around tumoral tissue and the mediastinum, and dividing the counts per pixel (average counts) within each region of interest by the initial whole-body count value, thereby yielding a percent injected dose per pixel. (F) Immunoblot analysis of membrane fractions isolated from MMTV-ras tumor with anti-NIS Ab. (I) Immunoblot analysis of membrane fractions isolated from MMTV-neu tumors with anti-NIS Ab. In an MMTV-neu mouse with two adjacent mammary glands containing tumors, each tumor is indicated with an arrow and numbered. […]
To assess whether specific active I^− uptake (a result of mgNIS expression) occurred in the mammary tumoral cells, transgenic animals were imaged in vivo with either ^131I^− or ^99mTcO4^−. […] Quantification of the accumulation of the various tracers in the tumor, as a function of time, is also shown for the ras mouse.

For “^99mTc-HSA: ^99mTc-labeled human serum albumin, a vascular space marker”, the “tracer accumulation in mammary tumor” value is given as “lack of accumulation”.
